Results: US6965013B2, “Intermedin and its uses” (The Board of Trustees of the Leland Stanford Junior …, priority 2002, dated 2005)

Protein sequences, listed by entry. Tags and fused reporters are not part of them. Residues count along the entry.
UniProt Q63118, 24-464: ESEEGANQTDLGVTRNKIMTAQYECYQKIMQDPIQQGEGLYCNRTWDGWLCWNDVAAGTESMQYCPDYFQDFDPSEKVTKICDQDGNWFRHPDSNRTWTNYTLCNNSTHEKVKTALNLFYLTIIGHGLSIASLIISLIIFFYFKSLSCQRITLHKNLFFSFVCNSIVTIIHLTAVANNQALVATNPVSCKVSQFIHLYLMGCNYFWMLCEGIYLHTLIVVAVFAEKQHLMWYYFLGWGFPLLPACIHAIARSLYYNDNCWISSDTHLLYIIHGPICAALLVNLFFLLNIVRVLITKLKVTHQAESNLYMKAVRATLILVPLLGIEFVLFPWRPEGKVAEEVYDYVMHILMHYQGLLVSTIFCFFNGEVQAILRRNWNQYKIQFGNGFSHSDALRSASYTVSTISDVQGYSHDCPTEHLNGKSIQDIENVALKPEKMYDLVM
UniProt Q9JJ74, 27-148 partner: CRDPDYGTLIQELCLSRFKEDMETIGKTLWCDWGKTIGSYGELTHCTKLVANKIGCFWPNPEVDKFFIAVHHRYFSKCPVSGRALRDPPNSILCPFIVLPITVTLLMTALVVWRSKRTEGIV

Target: T1, L6 skeletal myoblast cells expressing endogenous CRLR (CGRP receptor) (Rattus norvegicus, UniProt Q63118+Q9JJ74)
T1 construct: expressing endogenous CRLR; host or cells: L6 rat skeletal myoblast cells
Test: Stimulation of cAMP production in L6 cells
Type: cell-based
Conditions: 30 min treatment, 2.5 mM IBMX, FIG. 2B
Method: Stimulation of cAMP production in SK-N-MC and L6 cells by intermedin and related peptides. Human neuroblastoma SK-N-MC and rat L6 skeletal myoblast cells expressing endogenous CRLR were obtained from American Type Culture Collection. To estimate adenylyl cyclase activation, SK-N-MC and L6 cells (2×10^5 viable cells/well) were plated in 24-well culture dishes in DMEM/F12 medium one day before treatment. Following 2 h incubation in serum-free DMEM/F12 medium, cells were treated with testing reagents for 30 min in medium containing 0.1% BSA and 2.5 mM 3-isobutyl-1-methylxanthine (IBMX, Sigma-Aldrich Corp.) to prevent hydrolysis of cAMP by phosphodiesterases. Following treatment, cells were lysed and cAMP content determined by a specific radioimmunoassay.

calcitonin gene-related peptide [CGRP, reference compound]
cAMP production: stimulated cAMP production
